Source: EP4837910A1, “ISOXAZOLINE COMPOUND AND PREPARATION METHOD THEREFOR, HERBICIDAL COMPOSITION, AND USE” (dated 2026)

Columns and labels:
[1] = system: Monocotyledonous and dicotyledonous weed; assay: Pre-emergence test on weeds (greenhouse, sprayed immediately after sowing); conditions: fresh weight control rate; for activity level of plant damage (growth control rate), Descurainia sophia / activity level of plant damage (growth control rate), Digitaria sanguinalis / activity level of plant damage (growth control rate), Lolium multiflorum / activity level of plant damage (growth control rate), Setaria viridis: Dosage 240 g a.i./ha, after 4 weeks in greenhouse; for activity level of plant damage (growth control rate), Zea mays: crop Zea mays
Text: (§1) The criteria for activity levels of plant damage (i.e., growth control rate) are as follows: • Level 9: completely dead; • Level 8: growth control rate greater than or equal to 90% and less than 100%; • Level 7: growth control rate greater than or equal to 80% and less than 90%; • Level 6: growth control rate greater than or equal to 70% and less than 80%; • Level 5: growth control rate greater than or equal to 50% and less than 70%; • Level 4: growth control rate greater than or equal to 30% and less than 50%; • Level 3: growth control rate greater than or equal to 20% and less than 30%; • Level 2: growth control rate greater than or equal to 10% and less than 20%; • Level 1: growth control rate less than 10%; • Level 0: no effect.
(§2) The above growth control rates are fresh weight control rates.
Monocotyledonous and dicotyledonous weed seeds as well as major crop seeds were placed in plastic pots filled with soil and then covered with 0.5-2 cm of soil. The test compounds of the present invention were individually dissolved with acetone, then added with Tween® 80, diluted with certain amount of water to obtain solutions of certain concentrations, and sprayed immediately after sowing. After drug application, the experimental results on weeds were observed after 4 weeks of cultivation in a greenhouse. Table 3 Results of pre-emergence test on weeds

[2] = system: Monocotyledonous and dicotyledonous weed; assay: Post-emergence test on weeds (greenhouse, spray tower); conditions: after 3 weeks of cultivation in a greenhouse, fresh weight control rate
Text: as §1, §2
Monocotyledonous and dicotyledonous weed seeds as well as major crop seeds were placed in plastic pots filled with soil and then covered with 0.5-2 cm of soil to allow them grow in a favorable greenhouse environment. Two weeks after sowing, the test plants were treated. The test compounds of the present invention were individually dissolved with acetone, then added with Tween® 80 and the emulsifiable concentrate of methyl oleate as a synergist, diluted with certain amount of water to obtain solutions of certain concentrations, and sprayed to the plants using a spray tower. After drug application, the experimental results on weeds were collected after 3 weeks of cultivation in a greenhouse. Table 2 Results of post-emergence test on weeds

[3] = sprayed immediately after sowing, 240 g a.i./ha, observed after 4 weeks in greenhouse

| SMILES | activity level of plant damage (growth control rate), Digitaria sanguinalis [1] | activity level of plant damage (growth control rate), Lolium multiflorum ([1]; Lolium multiflorum) | activity level of plant damage (growth control rate), Setaria viridis [1] | Digitaria sanguinalis, activity level of plant damage (growth control rate) ([2]; Dosage 60 g a.i./ha) | Echinochloa crus-galli, activity level of plant damage (growth control rate) ([2]; Dosage 60 g a.i./ha) | activity level (growth control rate), Digitaria sanguinalis [1, 3] | activity level (growth control rate), Setaria viridis [1, 3] | also measured |
| --- | --- | --- | --- | --- | --- | --- | --- | --- |
| C=C(C)[C@]1(C(=O)N[C@@H](C)C(=O)NOCCC)CC(c2cc(F)cc(F)c2)=NO1 | 9 | 9 | 9 | 8 (Level 8: growth control rate greater than or equal to 90% and less than 100%) | 9 | – | – | activity level of plant damage (growth control rate), Descurainia sophia ([1]; Descurainia sophia): 9 |
| C=C[C@]1(C(=O)N[C@@H](C)C(=O)N(C)OCC(=O)ON=C(C)C)CC(c2cc(F)cc(F)c2)=NO1 | – | – | – | – | – | – | – | activity level (growth control rate), Descurainia sophia ([1]; Descurainia sophia, sprayed immediately after sowing, 240 g a.i./ha, observed after 4 weeks in greenhouse): 9; activity level (growth control rate), Lolium multiflorum ([1]; Lolium multiflorum, sprayed immediately after sowing, 240 g a.i./ha, observed after 4 weeks in greenhouse): 9; activity level of plant damage (growth control rate), Zea mays [1, 3]: 1 (Level 1: growth control rate less than 10%); Digitaria sanguinalis, activity level of plant damage (growth control rate) ([2]; Dosage 240 g a.i./ha): 5 (Level 5: growth control rate greater than or equal to 50% and less than 70%); Echinochloa crus-galli, activity level of plant damage (growth control rate) ([2]; Dosage 240 g a.i./ha): 6 (Level 6: growth control rate greater than or equal to 70% and less than 80%) |
| CC[C@]1(C(=O)N[C@@H](C)C(=O)N(C)OC)CC(c2cc(F)cc(F)c2)=NO1 | 9 | 9 | 9 | – | – | – | – | Avena fatua, activity level of plant damage (growth control rate) ([2]; Dosage 240 g a.i./ha): 9 |
| C=C(C)[C@]1(C(=O)NC(C(=O)NOCC)C2CC2)CC(c2cc(F)cc(F)c2)=NO1 (some centres unmarked) | 9 | 8 (Level 8: growth control rate greater than or equal to 90% and less than 100%) | 9 | 8 (Level 8: growth control rate greater than or equal to 90% and less than 100%) | 9 | – | – | activity level of plant damage (growth control rate), Descurainia sophia ([1]; Descurainia sophia): 6 (Level 6: growth control rate greater than or equal to 70% and less than 80%) |
| C=CCONC(=O)[C@H](C)NC(=O)[C@@]1(C(=C)C)CC(c2cc(F)cc(F)c2)=NO1 | 9 | 9 | 9 | 8 (Level 8: growth control rate greater than or equal to 90% and less than 100%) | 8 (Level 8: growth control rate greater than or equal to 90% and less than 100%) | – | – | activity level of plant damage (growth control rate), Descurainia sophia ([1]; Descurainia sophia): 9 |
| C=C(C)[C@]1(C(=O)N[C@@H](C)C(=O)NOCc2ncc(Cl)cc2F)CC(c2cc(F)cc(F)c2)=NO1 | – | – | – | 8 (Level 8: growth control rate greater than or equal to 90% and less than 100%) | 8 (Level 8: growth control rate greater than or equal to 90% and less than 100%) | 9 | 9 | – |
| C=C(C)[C@]1(C(=O)N[C@@H](C)C(=O)NOCC(=O)N2CCCO2)CC(c2cc(F)cc(F)c2)=NO1 | – | – | – | 9 | 8 (Level 8: growth control rate greater than or equal to 90% and less than 100%) | 8 (Level 8: growth control rate greater than or equal to 90% and less than 100%) | 9 | activity level of plant damage (growth control rate), Zea mays [1, 3]: 0 |
| C=C(C)[C@]1(C(=O)N[C@@H](C)C(=O)N(C)OC)CC(c2cc(F)cc(F)c2)=NO1 | 9 | 9 | 9 | – | – | – | – | Avena fatua, activity level of plant damage (growth control rate) ([2]; Dosage 240 g a.i./ha): 8 (Level 8: growth control rate greater than or equal to 90% and less than 100%); Digitaria sanguinalis, activity level of plant damage (growth control rate) ([2]; Dosage 240 g a.i./ha): 8 (Level 8: growth control rate greater than or equal to 90% and less than 100%); Echinochloa crus-galli, activity level of plant damage (growth control rate) ([2]; Dosage 240 g a.i./ha): 9 |
| C=C(C)[C@]1(C(=O)NCC(=O)NOC)CC(c2cc(Cl)cc(Cl)c2)=NO1 | – | – | – | 6 (Level 6: growth control rate greater than or equal to 70% and less than 80%) | – | 9 | 9 | activity level of plant damage (growth control rate), Triticum aestivum ([1]; crop Triticum aestivum, sprayed immediately after sowing, 240 g a.i./ha, observed after 4 weeks in greenhouse): 0 |
| C=C(C)[C@]1(C(=O)N[C@@H](C)C(=O)NOCC#CC2CC2)CC(c2cc(Cl)cc(Cl)c2)=NO1 | – | – | – | 8 (Level 8: growth control rate greater than or equal to 90% and less than 100%) | 8 (Level 8: growth control rate greater than or equal to 90% and less than 100%) | 9 | 9 | activity level of plant damage (growth control rate), Zea mays [1, 3]: 0; Amaranthus retroflexus, activity level of plant damage (growth control rate) ([2]; Dosage 60 g a.i./ha): 6 (Level 6: growth control rate greater than or equal to 70% and less than 80%) |
| C=C(C)[C@]1(C(=O)N[C@@H](C)C(=O)NOCCCl)CC(c2cc(F)cc(F)c2)=NO1 | 9 | 9 | 9 | 8 (Level 8: growth control rate greater than or equal to 90% and less than 100%) | 9 | – | – | activity level of plant damage (growth control rate), Descurainia sophia ([1]; Descurainia sophia): 9 |
| C=C(C)[C@]1(C(=O)N[C@@H](C)C(=O)NOCC(=O)NC)CC(c2cc(F)cc(F)c2)=NO1 | – | – | – | 8 (Level 8: growth control rate greater than or equal to 90% and less than 100%) | 8 (Level 8: growth control rate greater than or equal to 90% and less than 100%) | 9 | 9 | – |
| C=C(C)[C@]1(C(=O)N[C@@H](C)C(=O)NOCC(=O)N(C)OC)CC(c2cc(F)cc(F)c2)=NO1 | – | – | – | 8 (Level 8: growth control rate greater than or equal to 90% and less than 100%) | 8 (Level 8: growth control rate greater than or equal to 90% and less than 100%) | 9 | 9 | – |
| C=C(C)[C@]1(C(=O)N[C@@H](C)C(=O)N(C)OCC)CC(c2cc(F)cc(F)c2)=NO1 | 9 | – | 9 | – | – | – | – | Digitaria sanguinalis, activity level of plant damage (growth control rate) ([2]; Dosage 120 g a.i./ha): 9 |
| C=C(C)[C@]1(C(=O)N[C@@H](C)C(=O)NOCCCC2CCCC2)CC(c2cc(F)cc(F)c2)=NO1 | – | – | – | 8 (Level 8: growth control rate greater than or equal to 90% and less than 100%) | 8 (Level 8: growth control rate greater than or equal to 90% and less than 100%) | 9 | 9 | Amaranthus retroflexus, activity level of plant damage (growth control rate) ([2]; Dosage 60 g a.i./ha): 6 (Level 6: growth control rate greater than or equal to 70% and less than 80%) |
| C=C(C)[C@]1(C(=O)NCC(=O)NOCC)CC(c2cc(F)cc(F)c2)=NO1 | 9 | 9 | 9 | 8 (Level 8: growth control rate greater than or equal to 90% and less than 100%) | 9 | – | – | – |
| C=C(C)[C@]1(C(=O)N[C@@H](C)C(=O)NOCC(=O)O)CC(c2cc(F)cc(F)c2)=NO1 | – | – | – | 8 (Level 8: growth control rate greater than or equal to 90% and less than 100%) | 8 (Level 8: growth control rate greater than or equal to 90% and less than 100%) | 8 (Level 8: growth control rate greater than or equal to 90% and less than 100%) | 7 (Level 7: growth control rate greater than or equal to 80% and less than 90%) | – |
